T1: rat GALR3 (Rattus norvegicus, UniProt O88626)
T1 sequence (O88626 1-370): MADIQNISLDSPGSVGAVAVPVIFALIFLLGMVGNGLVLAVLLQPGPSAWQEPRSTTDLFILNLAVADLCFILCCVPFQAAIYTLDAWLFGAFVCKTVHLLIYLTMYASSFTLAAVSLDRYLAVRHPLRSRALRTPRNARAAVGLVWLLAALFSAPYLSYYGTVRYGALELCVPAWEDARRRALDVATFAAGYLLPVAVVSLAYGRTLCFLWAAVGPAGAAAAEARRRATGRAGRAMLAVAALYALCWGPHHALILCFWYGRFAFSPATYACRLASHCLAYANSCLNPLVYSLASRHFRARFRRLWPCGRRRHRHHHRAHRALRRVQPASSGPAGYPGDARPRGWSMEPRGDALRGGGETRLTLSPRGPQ

Amino acid sequences for entries named in this document (tags omitted). A change or cut given only in a name is not applied to a line headed by its entry.
UniProt P07480: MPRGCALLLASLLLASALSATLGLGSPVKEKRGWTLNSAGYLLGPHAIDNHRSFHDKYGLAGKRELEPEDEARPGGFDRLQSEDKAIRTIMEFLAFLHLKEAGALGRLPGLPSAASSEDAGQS

T2: human GALR3 galanin receptor (human, UniProt O60755 1-368)
T2 sequence: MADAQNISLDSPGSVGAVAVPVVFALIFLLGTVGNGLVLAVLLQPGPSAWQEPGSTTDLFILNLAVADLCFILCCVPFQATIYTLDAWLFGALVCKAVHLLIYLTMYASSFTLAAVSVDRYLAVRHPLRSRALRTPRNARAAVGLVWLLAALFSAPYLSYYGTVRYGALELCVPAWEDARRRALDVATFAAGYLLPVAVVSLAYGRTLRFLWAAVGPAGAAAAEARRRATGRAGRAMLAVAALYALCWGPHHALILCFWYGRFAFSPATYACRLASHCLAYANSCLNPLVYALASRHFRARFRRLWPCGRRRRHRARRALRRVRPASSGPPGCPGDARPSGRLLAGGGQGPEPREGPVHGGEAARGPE

B1: porcine galanin (peptide, UniProt P07480 33-61, looked up)
peptide: GWTLNSAGYLLGPHAIDNHRSFHDKYGLA

Assays:
rat GALR3 [1] = target: T1, rat GALR3; assay: porcine 125I-galanin binding, membranes of stable cell line 293-rGalR3-105
rat GALR3 [2] = target: T1, rat GALR3; assay: porcine 125I-galanin binding, rat GALR3 transiently expressed in COS-7 cell membranes
[3] = target: T2, human GALR3 galanin receptor; assay: cell-based or functional assay

Row | Molecule | Ki (rat GALR3 [1]; Ki (nM) Rat 293-rGalR3-105, Table 5, stable) [nM] | Ki (rat GALR3 [1]; Ki (nM) Rat GALR3 293 #105, Table 9) [nM] | Ki (rat GALR3 [2]) [nM] | binding affinity for rat GALR3 in words (rat GALR3 [2]; peptide displacement assays) | Oocyte EC50 (stimulation of GIRKs) [3] [nM]
1 | CSCC[C@H](NC(=O)[C@H](CC(C)C)NC(=O)CNC(=O)[C@H](Cc1ccccc1)NC(=O)[C@H](Cc1ccccc1)NC(=O)[C@H](CCC(N)=O)NC(=O)[C@H](CCC(N)=O)NC(=O)[C@@H]1CCCN1C(=O)CNC(=O)[C@H](CC(C)C)NC(=O)[C@H](CC(C)C)NC(=O)[C@H](Cc1ccc(O)cc1)NC(=O)CNC(=O)[C@H](C)NC(=O)[C@H](CO)NC(=O)[C@H](CC(N)=O)NC(=O)[C@H](CC(C)C)NC(=O)[C@@H](NC(=O)[C@H](Cc1c[nH]c2ccccc12)NC(=O)CN)[C@@H](C)O)C(N)=O | 7.6 | 11.5 | 9 | slightly less active | –
2 | B1 | – | – | – | – | 222

From patent publication US6368812B1 (priority 1996, dated 2002)
